Where “and” joins values, the source holds several entries; their conditions need not be identical. Equal entries are not always repeated. This is a selection; strong and weak results do not stand in their true shares. Records with an inconclusive call do not appear. Calls of active or inactive are those of the source. Unless noted, calls come from the whole dose curve; as a rule, active = well fitted curve in the direction sought with a large enough effect in the repeat runs; inconclusive = weak or mixed curves; inactive = no such curve, though single readings can be large; an effect the other way counts as inactive or inconclusive.
Tests used:
[1] = qHTS RealTime-Glo MT Cell Viability Assay in HEK293 cells - 0 hour (AID 1224880); details: RealTime-Glo luminescence; at 76.8 µM (top of the series) unless noted; note: top concentration of the series differs between compounds; nearly all actives have a fitted effect of over 45% in size
Outline: (§1)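 Luminescence readout at each listed time point; HEK293, 600 cells/well, RealTime-Glo MT reagent added with cells; compounds pinned (23 nL in DMSO) after 5 h at 37 C; continuous culture at 37 C.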

The chains behind the UniProt entries cited, without tags or fusion partners.
UniProt P10275, whole entry: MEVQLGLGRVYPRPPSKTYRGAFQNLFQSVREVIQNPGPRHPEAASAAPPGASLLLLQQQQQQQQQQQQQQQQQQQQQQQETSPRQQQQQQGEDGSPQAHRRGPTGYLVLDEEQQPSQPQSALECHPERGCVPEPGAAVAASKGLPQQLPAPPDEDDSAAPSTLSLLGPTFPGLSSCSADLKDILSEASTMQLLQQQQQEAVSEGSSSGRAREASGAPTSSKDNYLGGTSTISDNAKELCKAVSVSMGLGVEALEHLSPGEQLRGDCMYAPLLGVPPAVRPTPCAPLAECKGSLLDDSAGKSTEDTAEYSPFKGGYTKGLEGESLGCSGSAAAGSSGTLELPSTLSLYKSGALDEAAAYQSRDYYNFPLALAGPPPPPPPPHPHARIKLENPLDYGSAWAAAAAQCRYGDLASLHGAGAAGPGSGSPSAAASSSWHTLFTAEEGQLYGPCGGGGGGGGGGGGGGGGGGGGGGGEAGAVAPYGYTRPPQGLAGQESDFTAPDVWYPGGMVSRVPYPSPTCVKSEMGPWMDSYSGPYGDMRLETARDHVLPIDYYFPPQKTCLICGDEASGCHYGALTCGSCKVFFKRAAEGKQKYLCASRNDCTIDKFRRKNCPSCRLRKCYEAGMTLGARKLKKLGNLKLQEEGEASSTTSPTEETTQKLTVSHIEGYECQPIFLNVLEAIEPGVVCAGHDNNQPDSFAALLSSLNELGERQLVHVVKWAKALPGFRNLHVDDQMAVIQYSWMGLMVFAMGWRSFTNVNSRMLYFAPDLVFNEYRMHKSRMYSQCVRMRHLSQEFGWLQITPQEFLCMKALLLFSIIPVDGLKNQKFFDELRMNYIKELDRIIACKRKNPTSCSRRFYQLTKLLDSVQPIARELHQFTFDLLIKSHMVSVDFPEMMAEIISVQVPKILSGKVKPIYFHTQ
UniProt P03372, whole entry: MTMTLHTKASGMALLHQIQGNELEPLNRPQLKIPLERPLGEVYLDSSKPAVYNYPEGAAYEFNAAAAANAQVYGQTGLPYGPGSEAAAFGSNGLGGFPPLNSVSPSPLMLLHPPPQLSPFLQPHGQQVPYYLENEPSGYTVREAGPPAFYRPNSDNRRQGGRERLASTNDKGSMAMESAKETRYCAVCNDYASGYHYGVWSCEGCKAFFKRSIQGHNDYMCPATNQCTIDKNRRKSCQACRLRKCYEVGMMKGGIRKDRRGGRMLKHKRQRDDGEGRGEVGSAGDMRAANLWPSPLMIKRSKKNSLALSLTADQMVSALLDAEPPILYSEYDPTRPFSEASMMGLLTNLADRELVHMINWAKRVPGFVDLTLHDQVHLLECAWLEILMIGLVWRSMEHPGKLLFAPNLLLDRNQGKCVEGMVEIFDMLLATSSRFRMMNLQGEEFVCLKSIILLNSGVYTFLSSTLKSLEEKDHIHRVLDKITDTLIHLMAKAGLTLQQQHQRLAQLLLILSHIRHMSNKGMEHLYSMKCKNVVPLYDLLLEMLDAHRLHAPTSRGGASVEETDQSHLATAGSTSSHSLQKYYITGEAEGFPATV

[2] = A CellTox Green Cytotoxicity Assay to monitor cytotoxicity in HEK293 cells - 32 hour (AID 1224881); details: CellTox Green fluorescence; at 76.8 µM (top of the series) unless noted; note: nearly all actives have a fitted effect of over 40% in size
Outline: (§2)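 Read-out: fluorescence of a cell-impermeant cyanine dye staining DNA of dead cells, proportional to cytotoxicity. HEK293, 600 cells/well with reagent, compound (23 nL DMSO) added after 5 h; reads at 0, 8, 16, 24, 32, 40 h.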

[3] = A CellTox Green Cytotoxicity Assay to monitor cytotoxicity in HepG2 cells - 0 hour (AID 1224882); details: CellTox Green fluorescence; at 76.8 µM (top of the series); note: nearly all actives have a fitted effect of over 35% in size
Outline: (§3)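 HepG2, 600 cells/well premixed w/ CellTox Green; 5 h settle, 37 C/5% CO2; pintool cpd add (DMSO); 37 C, 40 h; fluorescence read at 0, 8, 16, 24, 32, 40 h.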

[4] = A CellTox Green Cytotoxicity Assay to monitor cytotoxicity in HepG2 cells - 32 hour (AID 1224883); details: CellTox Green fluorescence; at 76.8 µM (top of the series); note: nearly all actives have a fitted effect of over 50% in size
Outline: as §3

[5] = A CellTox Green Cytotoxicity Assay to monitor cytotoxicity in HEK293 cells - 8 hour (AID 1224884); details: CellTox Green fluorescence; at 76.8 µM (top of the series) unless noted; note: nearly all actives have a fitted effect of over 35% in size
Outline: as §2

[6] = qHTS RealTime-Glo MT Cell Viability Assay in HepG2 cells - 16 hour (AID 1224885); details: RealTime-Glo luminescence; at 76.8 µM (top of the series) unless noted; note: nearly all actives have a fitted effect of over 50% in size
Outline: (§4)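 Luminescence read-out: viable HepG2 cells reduce a prosubstrate to a NanoLuc substrate, giving a signal proportional to live cell number. Reads taken at 0, 8, 16, 24, 32 and 40 h of compound exposure at 37 C.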

[7] = qHTS RealTime-Glo MT Cell Viability Assay in HEK293 cells - 24 hour (AID 1224886); details: RealTime-Glo luminescence; at 76.8 µM (top of the series) unless noted; note: top concentration of the series differs between compounds; nearly all actives have a fitted effect of over 50% in size
Outline: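 Nonlytic real-time viability readout: viable cells convert prosubstrate to NanoLuc substrate, giving luminescence proportional to live cell number. HEK293, 600 cells/well, compound added after 5 h, continuous culture at 37 C.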

[8] = qHTS RealTime-Glo MT Cell Viability Assay in HEK293 cells - 8 hour (AID 1224887); details: RealTime-Glo luminescence; at 76.8 µM (top of the series) unless noted; note: top concentration of the series differs between compounds; nearly all actives have a fitted effect of over 50% in size
Outline: as §1

[9] = A CellTox Green Cytotoxicity Assay to monitor cytotoxicity in HEK293 cells - 16 hour (AID 1224888); details: CellTox Green fluorescence, active compounds read high; at 76.8 µM (top of the series) unless noted; note: nearly all actives have a fitted effect of over 35% in size
Outline: as §2

[10] = qHTS RealTime-Glo MT Cell Viability Assay in HepG2 cells - 0 hour (AID 1224889); details: RealTime-Glo luminescence; at 76.8 µM (top of the series) unless noted; note: nearly all actives have a fitted effect of over 50% in size
Outline: as §4

[11] = A CellTox Green Cytotoxicity Assay to monitor cytotoxicity in HepG2 cells - 8 hour (AID 1224890); details: CellTox Green fluorescence; at 76.8 µM (top of the series); note: nearly all actives have a fitted effect of over 45% in size
Outline: as §3

[12] = qHTS assay to identify small molecule antagonists of the estrogen receptor alpha (ER-alpha) signaling pathway using the BG1 cell line in the presence of 0.1 nM 17-beta-estradiol - cell viability counter screen (AID 1259241); details: VM7Luc4E2 (BG1) viability, CellTiter-Fluor protease, 22 h, 0.1 nM estradiol agonist added; at 92.4 µM (top of the series) unless noted; note: nearly all actives have a fitted effect of over 40% in size
Outline: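 Estradiol-stimulated (0.1 nM) VM7Luc4E2 cells exposed to compounds 22 hr; viability measured by fluorescence of cleaved CellTiter-Fluor substrate after 30 min.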

[13] = qHTS assay to identify small molecule antagonists of the androgen receptor (AR) signaling pathway using the MDA cell line in the presence of 0.5 nM R1881 - cell viability counter screen (AID 1259242); note: nearly all actives have a fitted effect of over 45% in size
Outline: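 Live-cell protease fluorescence, CellTiter-Fluor, 30 min at 37C. Cells: MDA-kb2, 3,000/well, preincubated 5 hr. Compounds plus 0.5 nM R1881 final, 16 hr, 37C, 0% CO2.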

[14] = target: Androgen receptor (Homo sapiens) (UniProt P10275); assay: qHTS assay to identify small molecule antagonists of the androgen receptor (AR) signaling pathway using the MDA cell line in the presence of 0.5 nM R1881 (AID 1259243); details: MDA-kb2 MMTV-luciferase, R1881 0.5 nM, 16 h; at 92.4 µM (top of the series) unless noted; note: nearly all actives have a fitted effect of over 50% in size
[15] = qHTS assay to identify small molecule HDAC inhibitors (AID 1259364); details: HCT-116 HDAC-Glo I/II luminescence, 2 h; at 92.4 µM (top of the series) unless noted;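 note: wild-type HCT-116 cells with endogenous class I/II HDAC activity; top concentration of the series differs between compounds; nearly all actives have a fitted effect of over 45% in size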
Outline: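 HCT-116 (wild type), 1,500 cells/well, overnight; compound 2 hr 37C 5% CO2; HDAC-Glo I/II reagent 30 min RT; luminescence readout.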

[16] = qHTS assay to identify small molecule HDAC inhibitors - cell viability counter screen (AID 1259365); details: HCT-116 viability, CellTiter-Glo ATP luminescence, 2 h; at 92.4 µM (top of the series) unless noted; note: nearly all actives have a fitted effect of over 50% in size
Outline: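 After overnight seeding at 1,500 cells per well, wild-type HCT-116 cultures took up compounds in DMSO for 2hr at 37 C. Viable cell content came from luminescence with CellTiter-Glo.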

[17] = qHTS assay to identify small molecule agonists of the sonic hedgehog signaling (Shh) pathway - cell viability counter screen (AID 1259366); details: NIH/3T3 Gli1-Luc viability, CellTiter-Fluor, 24 h; at 92.4 µM (top of the series) unless noted; note: nearly all actives have a fitted effect of over 50% in size
Outline: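 Same-well cytotoxicity read. Gli1-Luc reporter 3T3 cells; compounds 24hr, 37C/5% CO2; CellTiter-Fluor fluorescence.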

[18] = qHTS assay to identify small molecule antagonists of the sonic hedgehog signaling (Shh) pathway - cell viability counter screen (AID 1259367); details: NIH/3T3 Gli1-Luc viability, CellTiter-Fluor, 24 h; at 92.4 µM (top of the series) unless noted; note: nearly all actives have a fitted effect of over 55% in size
Outline: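 Tox21 library chemicals were tested on a Gli1-Luc NIH/3T3 clone (2,000 cells/well) stimulated by conditioned medium; viability was quantified as fluorescence from CellTiter-Fluor reagent added at 23 hr.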

[19] = qHTS assay to identify small molecule agonists of the sonic hedgehog signaling (Shh) pathway (AID 1259368; calls by dose curve;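 note: NIH/3T3-derived 3T3Gli1-Luc cells carrying a stable Gli1-driven firefly luciferase reporter; nearly all actives have a fitted effect of over 15% in size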); details: NIH/3T3 Gli1-Luc reporter, luciferase, 24 h, active compounds read high; at 92.4 µM (top of the series) unless noted
Outline: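 Read-out: firefly luciferase luminescence from a Gli1 response element reporter stably integrated in NIH/3T3-derived 3T3Gli1-Luc cells, measured 30 min at room temperature after reagent addition. Compound exposure lasted 24 hr at 37 C, 5% CO2.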

[20] = target: Estrogen receptor (Homo sapiens) (UniProt P03372); assay: qHTS assay to identify small molecule antagonists of the estrogen receptor alpha (ER-alpha) signaling pathway using the BG1 cell line in the presence of 0.1 nM 17-beta-estradiol (AID 1259244); details: VM7Luc4E2 (BG1) ERE-luciferase, antagonist mode, 0.1 nM E2, 22 h; at 92.4 µM (top of the series) unless noted; note: nearly all actives have a fitted effect of over 50% in size
% is set by controls: 0 for no effect and ±100 for the full control effect.

CC(C)OP(OC(C)C)OC(C)C
inactive: activity change, negative = cytotoxicity [1] 0.42% | cytotoxicity increase [2] 9.72% | cytotoxicity [3] 7.34% | cytotoxicity increase [4] 0.418% | cytotoxicity increase [5] 9.78% | activity change, negative = cytotoxic [6] 0.875% | activity change, negative = cytotoxicity [7] -4.92% | activity change, negative = cytotoxicity [8] -2.34% | activity change [9] 12.8% | activity change, negative = cytotoxicity [10] 6.81% | cytotoxicity increase [11] 1.75% | activity change, negative = cytotoxicity [12] 3.31% | Potency [13] | activity, negative = inhibition [14] 0.307% | activity change, negative = inhibition [15] -2.91% | activity change, negative = cytotoxicity [16] 4.64% | viability change, negative = cytotoxic [17] -13.5% | viability change, negative = cytotoxic [18] -10.2% | activity change [19] 0.905%

ClCCOP(OCCCl)OCCCl
inactive: activity change, negative = cytotoxicity [1] 0.172% and 1.6% | cytotoxicity increase [2] -4.57% and 4.49% | cytotoxicity [3] -4.76% and -8.64% | cytotoxicity increase [4] -11% and -20.9% | cytotoxicity increase [5] -9.6% and 2.01% | activity change, negative = cytotoxic [6] 3.68% and 3.71% | activity change, negative = cytotoxicity [7] 10.3% and 0.977% | activity change, negative = cytotoxicity [8] 3.84% and 3.61% | activity change [9] -9.29% and 1.34% | activity change, negative = cytotoxicity [10] -3.79% and 3.58% | cytotoxicity increase [11] -10.8% and -12.2% | activity change, negative = cytotoxicity [12] -10.3% and 3.11% | Potency [13] | activity change, negative = inhibition [20] -7.73% and -1.47% | activity change, negative = inhibition [15] 2.52% and 2.61% | activity change, negative = cytotoxicity [16] -5.15% and -1.06% | viability change, negative = cytotoxic [17] -13.3% and 3.1% | viability change, negative = cytotoxic [18] 3.3% and 2.67% | activity change [19] 0.187% and -0.658%

CCOP(=S)(Cl)OCC
inactive: activity change, negative = cytotoxicity [1] 1.41% | cytotoxicity increase [2] 7.52% | cytotoxicity [3] 0.0211% | cytotoxicity increase [4] 4.87% | cytotoxicity increase [5] 6.07% | activity change, negative = cytotoxic [6] 0.243% | activity change, negative = cytotoxicity [7] 13.8% | activity change, negative = cytotoxicity [8] 3.16% | activity change [9] 2.57% | activity change, negative = cytotoxicity [10] -7.26% | cytotoxicity increase [11] -2.28% | activity change, negative = cytotoxicity [12] 12.1% | Potency [13] | activity change, negative = inhibition [15] 3.23% | activity change, negative = cytotoxicity [16] -1.57% | viability change, negative = cytotoxic [17] 2.9% | viability change, negative = cytotoxic [18] -1.07% | activity change [19] -2.43%

CCOC(=O)N1CCC(=O)CC1
inactive: activity change, negative = cytotoxicity [1] 4.27% [at 35.3 µM] | cytotoxicity increase [2] 6.55% [at 35.3 µM] | cytotoxicity increase [5] 5.25% [at 35.3 µM] | activity change, negative = cytotoxic [6] 2.18% [at 35.3 µM] | activity change, negative = cytotoxicity [7] 0.466% [at 35.3 µM] | activity change, negative = cytotoxicity [8] 1.51% [at 35.3 µM] | activity change [9] 1.73% [at 35.3 µM] | activity change, negative = cytotoxicity [10] 4.42% [at 35.3 µM] | activity change, negative = cytotoxicity [12] 1.23% [at 42.5 µM] | Potency [13] | activity, negative = inhibition [14] -0.0657% [at 42.5 µM] | activity change, negative = inhibition [15] -0.48% [at 42.5 µM] | activity change, negative = cytotoxicity [16] 0.231% [at 42.5 µM] | viability change, negative = cytotoxic [17] 3.21% [at 42.5 µM] | viability change, negative = cytotoxic [18] 1.53% [at 42.5 µM] | activity change [19] 0.04% [at 42.5 µM]
